Screening results from PubChem.
This is a sample that favours compounds with a hit; in the whole collection about 13% have one here.
Lamin A splicing: LMNA splicing modulation. Potency, µM (top dose mostly 46.1 µM), inactives show top-dose ratio change, negative = inhibition, usual class: inhibitors. AID 1487. HeLa LMNA splicing GFP/RFP minigene ratio, 48 h. 0.01% of 200,000 active; active = well fitted inhibition curve with a large enough effect in the signal ratio, with a control signal flat, not every such curve was filed as active; inconclusive = small, poorly fitted or top-dose-only effect, or effect the other way, or a change in a side signal; the % refers to the signal ratio; also: potency is read from the fitted curve at half-maximal effect; % is scaled to controls: 0 for no effect and ±100 for the full control effect
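S3 HeLa stable clones carrying a lamin A-EGFP splicing minigene plus DsRed2 were seeded at 600 cells/well in Opti-MEM with 2% FBS, pin-dosed and incubated 48 h at 37°C. Acumen cytometry (488 nm) gave the GFP/RFP total-intensity ratio.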
miR-21 FLuc: miR-21 reporter, rising signal | HeLa miR-21 FLuc reporter, luciferase, 48 h | Potency, µM (top dose mostly 38.3 µM), inactives show at the highest dose reporter change, positive = more light | 340,000 tested, under 10 active | AID 2288; active = well fitted rising curve with a large enough effect; inconclusive = small, poorly fitted or top-dose-only effect; inactive = no such curve, though single readings can be large or run the other way;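 note: % of control where 0% means no effect; miR-21 action dims this reporter so a rising signal means less miR-21 action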
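Luminescence from a firefly luciferase reporter carrying a miR-21 binding site downstream, stably expressed under a CMV promoter in HeLa cells that make miR-21 endogenously, reports miRNA modulation after 48 h compound exposure up to approximately 40uM final.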
Sfp inh: inhibitors of Bacillus subtilis Sfp phosphopantetheinyl transferase; Q9F4F7; Biochemical Sfp PPTase activity, qHTS; Potency, µM, inactives show max response, negative = inhibition, actives largely listed as inhibitors; hit rate 3.5% among 310,000; AID 1490; active means well fitted inhibition curve with a large enough effect; inconclusive means small, poorly fitted or top-dose-only effect, or another doubt; inactive means no such curve, though single readings can be large or run the other way;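 further: the enzyme is Sfp with the accession as filed and its product quenches rhodamine fluorescence; potency means the concentration at half of the fitted maximal effect; 0% = enzyme reaction without inhibitor and -100% = no enzyme wells; top concentration of the series not given in the record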
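Sfp 15 nM + cpd, 15 min RT; start w/ rhodamine-CoA 5 uM, BHQ-2-YbbR 12.5 uM (final); 50 mM Hepes pH 7.6, 10 mM MgCl2, 0.01% NP-40, 0.01% BSA; read 525/598 nm at 0 and 30 min.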
KDM4E inh: inhibitors of human JMJD2E histone demethylase | JMJD2E catalytic domain, FDH-coupled NADH fluorescence (FDH is formaldehyde dehydrogenase) | Potency, µM (highest dose often 57.1 µM), for inactives: top-dose activity change, negative = inhibition, most hits filed as inhibitors | 1.6% of 230,000 active | AID 2147; active = well fitted inhibition curve with a large enough effect, not every such curve was filed as active; inconclusive = small, poorly fitted or top-dose-only effect, or another doubt; inactive = no such curve, though single readings can be large or run the other way;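 also: potency is read from the fitted curve at half-maximal effect; 0% = wells with enzyme and -100% = buffer wells without enzyme; nearly all actives have a fitted effect of over 50% in size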
ALDH1A1 inh: ALDH1A1 (human) enzyme inhibition. Potency, µM (highest dose often 75.3 µM), without a hit: top-dose activity, negative = inhibition, hits mostly inhibitors. 7.3% of 220,000 active. AID 1030. Purified ALDH1A1, NADH fluorescence, propionaldehyde substrate. P00352; active = well fitted inhibition curve with a large enough effect, not every such curve was filed as active; inconclusive = small, poorly fitted or top-dose-only effect, or another doubt; inactive = no such curve, though single readings can be large or run the other way;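 also: potency is read from the fitted curve at half-maximal effect; plate controls were no enzyme wells and a reference inhibitor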
G9a inh: blocks human histone lysine methyltransferase G9a | G9a H3K9 monomethylation, AlphaScreen, 2 h | Potency, µM (highest dose often 102 µM), inactives show at the top dose activity, negative = inhibition, actives largely listed as inhibitors | 8.8% of 350,000 active | AID 504332; also: potency is read from the fitted curve at half-maximal effect; % is scaled to controls: 0 for no effect and ±100 for the full control effect; nearly all actives have a fitted effect of over 75% in size
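G9a (20 nM) preincubated 15 min RT with compounds, then 500 nM biotinylated H3K9 peptide and 20 uM SAM added; 2 h RT reaction. Monomethyl-H3K9 product detected by AlphaScreen with anti-H3K9me1 antibody, streptavidin donor and anti-rabbit IgG acceptor beads.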
* marks the source's active call; other numbers are inactive results; ? = inconclusive; . = not tested or not shown; [ ] = dose if it differs, or a comment. Unless noted, calls follow the shape of the dose curve; as a rule, active = well fitted curve in the direction sought with a large enough effect; inconclusive = small, poorly fitted or top-dose-only effect, or another doubt; inactive = no such curve, though single readings can be large; an effect the other way counts as inactive or inconclusive.

molecule	miR-21 FLuc	Sfp inh	KDM4E inh	Lamin A splicing	ALDH1A1 inh	G9a inh
COc1ccc(-c2ocnc2C(=O)N2CCN(Cc3cccnc3)CC2)cc1	-3%	6%	?	?	-11%	-7%
COCCSc1ncnc2c1oc1nc3c(cc12)COC(C)(C)C3	-24%	-22%	-18%	.	6.3µM*	.
Oc1ccccc1N1CCN(CC(O)COCc2ccccc2Cl)CC1 (stereo not drawn)	-6%	-15%	?	0%[46 µM]	?	10µM*
OC(COCc1ccccc1)CN1CCN(c2ccccc2)CC1 (stereo not drawn)	-1%	2%	-18%	12%	-4%	?
Nc1nc(SCC(=O)c2ccc([N+](=O)[O-])cc2)n[nH]1	-4%	32µM*	-1%	.	3%	7.9µM*
Nc1nc(SCC(=O)c2ccc(Oc3ccccc3)cc2)n[nH]1	-30%	50µM*	-22%	5%	14µM*	?
CC(=O)N1CCOc2ccc(S(=O)(=O)NC(C)c3ccccc3)cc21 (stereo not drawn)	1%	15%	.	.	.	-7%
O=C(NCc1ccc(F)cc1)C1CCCN(C(=O)NCc2ccccc2)C1 (stereo not drawn)	-6%	12%	.	.	.	-11%
COCCn1c(=O)c(-c2cc(F)cc(F)c2)nc2cnc(Nc3cccc(OC)c3)nc21	.	-6%	.	.	5%	-2%[12.7 µM]
Cc1ccc(C)c(NC(=O)COc2coc(CN3CCc4ccccc4C3)cc2=O)c1	.	.	.	.	.	6%[0.501 µM]
Cc1cc(C)cc(NC(=O)COc2coc(CN3CCc4ccccc43)cc2=O)c1	.	.	.	.	.	50µM*
CC1Cc2ccccc2N1Cc1cc(=O)c(OCC(=O)Nc2ccccc2)co1 (stereo not drawn)	.	.	.	.	.	-44%
Cc1ccc(NC(=O)COc2coc(CN3c4ccccc4CC3C)cc2=O)c(C)c1 (stereo not drawn)	.	.	.	.	.	50µM*
Cc1ccc(NC(=O)COc2coc(CN3CCc4ccccc4C3)cc2=O)c(C)c1	.	.	.	.	.	50µM*
O=C(COc1coc(CN2CCc3ccccc3C2)cc1=O)Nc1ccc(Cl)cc1	.	.	.	.	.	-10%[0.501 µM]
CCc1ccc(NC(=O)COc2coc(CN3CCc4ccccc4C3)cc2=O)cc1	.	.	.	.	.	56µM*
Cc1cccc(-n2c(=O)c3c(c4cc(C)ccc4n3C)n(Cc3ccccc3F)c2=O)c1	-3%	.	.	.	.	-3%[59 µM]
CC1CN(C(=O)COc2coc(CN3CCc4ccccc4C3)cc2=O)CC(C)O1 (stereo not drawn)	.	.	.	.	.	45µM*
COc1ccccc1C(=O)O/N=C1/CCCc2c1ccc(OC)c2[N+](=O)[O-]	-6%	11%	0%	6%	-5%	50µM*
COc1ccc2c(c1[N+](=O)[O-])CCC/C2=N/OC(=O)c1ccccc1SC	-6%	6%	2%	9%	-7%	45µM*
COc1cc(C(=O)O/N=C2\CCCc3c2ccc(OC)c3[N+](=O)[O-])cc(OC)c1OC	-1%	4%	-2%	17%	-3%	?
Cc1cc(C)n(-c2nc(N(c3ccccc3)c3ccccc3)nc(-n3nc(C)cc3C)n2)n1	-4%	50µM*	-1%	-2%	7%	20%[59 µM]
Cc1cc(C)n(-c2nc(Nc3ccccc3)nc(-n3nc(C)cc3C)n2)n1	0%	8%	-5%	5%	9%	?
O=C(COC(=O)c1cccs1)c1ccccc1	-42%	9%	3%	?	-6%	23%[59 µM]
O=C(CC(Nc1ccc(F)cc1)C(=O)OCC(=O)c1cccs1)c1ccccc1 (stereo not drawn)	-63%	35µM*	-5%	-14%	11µM*	?
Cc1cc(OCC(=O)N(Cc2sccc2C)C2CCS(=O)(=O)C2)ccc1Cl (stereo not drawn)	4%	.	.	.	.	8%[59 µM]
O=C(CC1N=C2c3ccccc3N=C(SCc3cccc(F)c3)N2C1=O)NCc1cccs1 (stereo not drawn)	3%	.	.	9%[46 µM]	.	10%[59 µM]
CN(C)CCC(=O)[C@@]1(O)CC[C@H]2[C@H]3CC=C4C[C@@H](O)CC[C@]4(C)[C@H]3CC[C@]21C	.	.	.	.	0.32µM*	.
CSc1oc(-c2cccs2)nc1S(=O)(=O)c1ccccc1	0%	89µM*	?	.	.	.
CSc1oc(-c2ccccc2)nc1S(=O)(=O)c1ccc(F)cc1	4%	-7%	-26%	?	-5%	40µM*
O=S(=O)(c1ccccc1)c1nc(-c2cccs2)oc1SCc1ccc(F)cc1	-8%	.	.	.	.	?
Cc1ccc(S(=O)(=O)c2nc(-c3ccc(F)cc3)oc2SCC(=O)NC2CCCCC2)cc1	0%	.	.	.	.	-9%[59 µM]
Cc1ccc(-c2nc(S(=O)(=O)c3ccc(C)cc3)c(SCC(=O)NCC3CCCO3)o2)cc1 (stereo not drawn)	1%	3%	.	.	.	45µM*
Cc1ccc(S(=O)(=O)c2nc(-c3ccc(F)cc3)oc2SCC(N)=O)cc1	-8%	1%	-1%	5%	?	13µM*
CSc1oc(-c2ccc(F)cc2)nc1S(=O)(=O)c1ccc(F)cc1	-2%	13%	?	-14%	3%	?
CC(NC(=O)CSc1nc(-c2cccc(Cl)c2)nc2cc(=O)[nH]n12)c1nc2ccccc2n1C (stereo not drawn)	-2%	.	.	.	.	5%[59 µM]
Cc1ccc(-c2noc(CNC(=O)COc3cc(C)c(Br)c(C)c3)n2)cc1	1%	.	.	.	.	2%[59 µM]
CSc1oc(-c2ccc(F)cc2)nc1S(=O)(=O)c1ccccc1	-27%	7%	0%	-2%	28µM*	?
O=C(CSc1oc(-c2cccs2)nc1S(=O)(=O)c1ccccc1)NC1CCCCC1	-1%	40µM*	?	9%	?	-10%[2.33 µM]
O=C(CSc1oc(-c2ccccc2)nc1S(=O)(=O)c1ccc(Cl)cc1)NC1CCCCC1	1%	.	.	.	.	?

Given with values under each structure: part of the list above
Order of values: miR-21 FLuc	Sfp inh	KDM4E inh	Lamin A splicing	ALDH1A1 inh	G9a inh
CC(NC(=O)CSc1nc(-c2cccc(Cl)c2)nc2cc(=O)[nH]n12)c1nc2ccccc2n1C (stereo not drawn)
    -2%	.	.	.	.	5%[59 µM]
Cc1ccc(S(=O)(=O)c2nc(-c3ccc(F)cc3)oc2SCC(N)=O)cc1
    -8%	1%	-1%	5%	?	13µM*
CN(C)CCC(=O)[C@@]1(O)CC[C@H]2[C@H]3CC=C4C[C@@H](O)CC[C@]4(C)[C@H]3CC[C@]21C
    .	.	.	.	0.32µM*	.
O=C(CSc1oc(-c2ccccc2)nc1S(=O)(=O)c1ccc(Cl)cc1)NC1CCCCC1
    1%	.	.	.	.	?
O=C(CC1N=C2c3ccccc3N=C(SCc3cccc(F)c3)N2C1=O)NCc1cccs1 (stereo not drawn)
    3%	.	.	9%[46 µM]	.	10%[59 µM]
Cc1cc(OCC(=O)N(Cc2sccc2C)C2CCS(=O)(=O)C2)ccc1Cl (stereo not drawn)
    4%	.	.	.	.	8%[59 µM]
